# Target: human Nav1.6 (hNav1.6) (Homo sapiens, UniProt Q9UQD0)
# Sequences of proteins named here, by UniProt entry; tags and fusion partners are left off.
# UniProt Q9UQD0, whole entry, looked up: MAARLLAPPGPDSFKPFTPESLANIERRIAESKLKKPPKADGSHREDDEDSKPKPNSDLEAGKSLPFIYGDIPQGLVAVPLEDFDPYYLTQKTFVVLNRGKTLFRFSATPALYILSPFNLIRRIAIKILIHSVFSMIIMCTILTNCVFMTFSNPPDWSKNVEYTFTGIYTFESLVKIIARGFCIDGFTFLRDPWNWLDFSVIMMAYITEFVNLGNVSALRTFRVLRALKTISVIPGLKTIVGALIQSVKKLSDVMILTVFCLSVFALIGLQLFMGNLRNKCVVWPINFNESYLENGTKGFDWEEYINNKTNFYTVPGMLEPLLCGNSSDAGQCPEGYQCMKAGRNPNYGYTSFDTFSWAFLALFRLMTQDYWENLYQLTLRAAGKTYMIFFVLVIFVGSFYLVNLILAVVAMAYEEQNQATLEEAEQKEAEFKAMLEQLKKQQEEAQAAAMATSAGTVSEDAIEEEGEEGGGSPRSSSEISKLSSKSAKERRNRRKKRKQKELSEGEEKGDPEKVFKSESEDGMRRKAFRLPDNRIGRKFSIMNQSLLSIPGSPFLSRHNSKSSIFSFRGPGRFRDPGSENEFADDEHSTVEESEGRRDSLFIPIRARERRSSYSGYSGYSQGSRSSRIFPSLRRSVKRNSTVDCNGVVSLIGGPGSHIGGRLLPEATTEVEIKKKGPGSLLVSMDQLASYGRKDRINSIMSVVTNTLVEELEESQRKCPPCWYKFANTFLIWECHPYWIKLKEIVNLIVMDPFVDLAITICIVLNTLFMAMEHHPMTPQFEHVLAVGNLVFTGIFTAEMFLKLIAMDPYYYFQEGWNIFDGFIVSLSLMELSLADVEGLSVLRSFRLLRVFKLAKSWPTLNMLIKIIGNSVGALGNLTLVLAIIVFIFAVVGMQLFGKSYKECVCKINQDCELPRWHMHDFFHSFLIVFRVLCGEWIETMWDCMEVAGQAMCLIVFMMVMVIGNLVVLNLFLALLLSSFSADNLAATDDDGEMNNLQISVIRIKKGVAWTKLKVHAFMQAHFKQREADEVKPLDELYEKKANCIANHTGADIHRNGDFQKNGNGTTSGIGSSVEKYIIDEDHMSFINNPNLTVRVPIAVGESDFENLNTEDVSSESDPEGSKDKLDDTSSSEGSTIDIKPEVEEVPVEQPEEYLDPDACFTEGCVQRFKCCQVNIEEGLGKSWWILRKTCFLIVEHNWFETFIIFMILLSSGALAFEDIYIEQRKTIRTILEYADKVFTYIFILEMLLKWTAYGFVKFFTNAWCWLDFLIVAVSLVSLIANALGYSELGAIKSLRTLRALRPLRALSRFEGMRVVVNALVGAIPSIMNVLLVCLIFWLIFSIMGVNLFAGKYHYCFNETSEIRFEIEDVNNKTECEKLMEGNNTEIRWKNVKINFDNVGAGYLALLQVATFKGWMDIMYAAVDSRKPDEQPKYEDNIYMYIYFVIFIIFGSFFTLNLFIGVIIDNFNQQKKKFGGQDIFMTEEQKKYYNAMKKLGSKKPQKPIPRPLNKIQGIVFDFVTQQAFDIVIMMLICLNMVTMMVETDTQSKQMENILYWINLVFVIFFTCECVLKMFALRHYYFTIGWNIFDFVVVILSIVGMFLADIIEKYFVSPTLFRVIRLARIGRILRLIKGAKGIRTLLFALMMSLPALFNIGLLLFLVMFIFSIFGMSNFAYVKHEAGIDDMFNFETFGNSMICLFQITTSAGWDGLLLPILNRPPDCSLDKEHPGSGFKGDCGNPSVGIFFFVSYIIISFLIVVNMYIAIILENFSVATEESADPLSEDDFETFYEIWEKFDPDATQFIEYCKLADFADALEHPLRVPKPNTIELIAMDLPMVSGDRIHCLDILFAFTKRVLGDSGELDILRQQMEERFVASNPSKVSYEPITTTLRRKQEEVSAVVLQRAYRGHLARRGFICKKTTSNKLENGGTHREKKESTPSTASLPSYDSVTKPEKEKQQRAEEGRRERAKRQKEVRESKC
# Experiment: Modulation of late sodium current (INaL), PatchXpress electrophysiology, ATX-II evoked
# Format: cell-based
# Conditions: 1 μM compound; HEK-293 cells expressing recombinant human Nav1.6; late current evoked by 300 nM ATX-II
# Description: Functional characterization of exemplary compounds to modulate INaL expressed by the Nav1.6 voltage-gated sodium channel was accomplished using the PatchXpress™ high throughput electrophysiology platform (Molecular Devices, Sunnyvale, CA). HEK-293 cells expressing recombinant, human Nav1.6 (hNav1.6) were grown in DMEM/high-glucose Dulbecco's modified, 10% FBS, 2 mM sodium pyruvate, 10 mM HEPES and 400 μg/mL G418. Cells were grown to 50%-80% confluency prior to harvesting. Trypsinized cells were washed, allowed to recover for 1 hour and then resuspended in extracellular recording solution at a concentration of 1×10^6 cells/ml. The onboard liquid handling facility of the PatchXpress was used for dispensing cells and applying test compounds. Nay late currents were evoked by the application of 300 nM ATX-II. INaL was evoked by depolarizing pulses to 0 mV for 200 ms from a non-inactivating holding potential (e.g., −120 mV) at a frequency of 0.1 Hz. INaL amplitude and stability were determined by analyzing the mean current amplitude over the final 20 ms of the test pulse. Following steady state block with exemplary compounds (e.g., as described herein), a Na^+ free solution containing an impermeant cation (e.g., Choline or NDMG) was added to confirm the identify of the sodium current. […]
structure (smiles),measurement,value
FC1(F)CC(Oc2ccc(-c3ccn4nncc4c3)cc2)C1,"INaL v1.6 (1 μM, % Inhibition)",B (inhibition of between about 30% to about 70%)

# From patent publication US11918571B2, “Compounds and their methods of use” (Praxis Precision Medicines, Inc., priority 2017, dated 2024)
